Measurements as given in publication PMC8082182 (Frontiers in Pharmacology, 2021).
Like-named read-outs stand apart in the source and are kept apart here.

Conditions: for AUC0–24, median: IQR not reported for n < 5

Compound: CN[C@H](CC(C)C)C(=O)N[C@H]1C(=O)N[C@@H](CC(N)=O)C(=O)N[C@H]2C(=O)N[C@H]3C(=O)N[C@H](C(=O)N[C@H](C(=O)O)c4cc(O)cc(O)c4-c4cc3ccc4O)[C@H](O)c3ccc(c(Cl)c3)Oc3cc2cc(c3O[C@@H]2O[C@H](CO)[C@@H](O)[C@H](O)[C@H]2O[C@H]2C[C@](C)(N)[C@H](O)[C@H](C)O2)Oc2ccc(cc2Cl)[C@H]1O [vancomycin]
- AUC0–24, median (Central nerve system, Not improved patients): 200.1 mg·h/L
- AUC0–24, median (IQR) (Endocarditis, Improved patients): 213.4 (195.3, 239.1) hr*mg/L
- AUC0–24, median (IQR) (Overall, Not improved patients): 212.6 (204.20, 314.50) hr*mg/L
- AUC0–24, median (Pulmonary, Not improved patients): 213.1 mg·h/L
- AUC0–24, median (Urinary tract, Not improved patients): 212.1 mg·h/L
